Test: Osmotic pressure of DexSO4 solutions by vapor pressure osmometer
Type: physicochemical

## Dextran sulfate, sodium salt [DexSO4]
6.5 mg/ml DexSO4 in Ringer solution
  excess osmolarity over Ringer's: 15 mOsm
20 mg/ml DexSO4 in Ringer solution
  excess osmolarity over Ringer's: 45 mOsm
65 mg/ml DexSO4 in Ringer solution
  excess osmolarity over Ringer's: 141 mOsm

Source: patent US20040224922A1, “Use of charged dextran as a mucoactive agent and methods and pharmaceutical compositions relating thereto” (priority 1999, published 2004)
